Consider one substance from patent publication US7175853B1, “Therapeutic system which can be moisture-activated” (LTS Lohmann Therapie-Systeme AG, priority 1998, dated 2007).

A short description of the data set: Dehydration behaviour of activators by Difference Scanning Calorimetry (DSC). It is filed as physicochemical. The settings on record: FIG. 14a-c. The text has this:
The dehydration behaviour of these substances was examined in three example substances by Difference Scanning Calorimetry (DSC). This thermal analysis provides information on the stages of dehydration taking place under energy absorption, and on the respective typical temperature.

Substance sodium trisilicate [Na2Si3O7.xH2O] yielded a dehydration temperature of 101.2 °C.
